The values below come from US20230219964A1, “ANTIBACTERIAL AND ANTIFUNGAL PLEUROMUTILIN CONJUGATES” (SYDDANSK UNIVERSITET, priority 2020, published 2023).

What all share (assay type): cell-based
The subject of test [1] is E. faecalis cells. In words: MIC in vitro broth micro-dilution assay, E. faecalis. To be noted: Enterococcus faecalis, read-out: in vitro susceptibility (MIC) E. Faecalis. The procedure: (§1) Bacterial susceptibility was established through an in vitro cell-based broth micro-dilution assay. To produce accurate and reproducible MIC-values, a procedure was used which follows the guidelines set by the Clinical and Laboratory Standards Institute (CLSI, USA) and the European Committee on Antimicrobial Susceptibility Testing (EUCAST). The micro-dilutions were carried out in 96-well plates, according to FIG. 3, wherein column 1 is a growth control, Columns 2 to 11 are dilutions of 1×, 2×, 4×, 8×, 16×, 32×, 64×, 128×, 256×, 512× respectively, and column 12 is a sterile control. To further increase the reliability of each susceptibility test, inoculation involved the use of three independent overnight cultures (ON1-ON3) thus giving rise to […]. Furthermore, each ON was added to two individual dilution rows, giving rise to biological duplicates. […]
(§2) 1.11 The optical density of bacterial cells in the ON culture was measured at wavelength 600 nm (OD600). […] 1.12 Then the OD600 was re-measured to make certain that it was between 0.08 and 0.13. […]
(§3) 1.18 Verification of standard inoculum: The 100× diluted culture of 1.13 was used to create 10^−1 to 10^−4 dilutions in PBS/0.9% saline (100 μl sample to 900 μl PBS, mix well and continue until 10^−4). […] 1.21 The plates were examined manually or by using the plate reader. […]
On the technique in general: Broth dilution looks for growth in wells or tubes with falling amounts of substance.

Test [2] concerns vancomycin-resistant enterococci (VRE) cells, VRE 1. In words: MIC in vitro broth micro-dilution assay, VRE 1. Particulars: Enterococcus, read-out: in vitro susceptibility (MIC) VRE 1. As for the experimental part:
as §1, §2, §3

Test [3] relates to vancomycin-resistant enterococci (VRE) cells, VRE 5. In words: MIC in vitro broth micro-dilution assay, VRE 5. Particulars: Enterococcus, read-out: in vitro susceptibility (MIC) VRE 5. The procedure: as §1, §2, §3

≈ marks a conversion by molar mass, not a printed value.

For the molecule `C=C[C@]1(C)C[C@@H](OC(=O)Cn2cc(-c3ccc(Cn4cnc5c(N6CCN(C)CC6)ncnc54)cc3)nn2)[C@]2(C)[C@H](C)CC[C@]3(CCC(=O)[C@H]32)[C@@H](C)[C@@H]1O` [C3], the minimum inhibitory concentration (MIC) – broadly, the least concentration at which growth counts as inhibited – in test [1] is 0.25 µg/mL (≈ 0.34 µM); in test [2], 0.12 to 0.25 µg/mL (≈ 0.163 to 0.34 µM); in test [3], 0.12 to 0.25 µg/mL (≈ 0.163 to 0.34 µM).
